From patent US12691112B2, “FGFR tyrosine kinase inhibitors for the treatment of urothelial carcinoma” (Janssen Pharmaceutica NV, priority 2019, dated 2026)

System: subjects with metastatic or surgically unresectable urothelial cancer

## COc1cc(OC)cc(N(CCNC(C)C)c2ccc3ncc(-c4cnn(C)c4)nc3c2)c1 [erdafitinib, N-(3,5-dimethoxy-phenyl)-N′-(1-methylethyl)-N-[3-(1-methyl-1H-pyrazol-4-yl)quinoxalin-6-yl]ethane-1,2-diamine]
6 mg continuous, n = 78
  Serious treatment-emergent: Musculoskeletal and connective tissue disorders: 4 (5) no. (%)
8 mg continuous, n = 99
  Serious treatment-emergent: Musculoskeletal and connective tissue disorders: 0 no. (%)
10 mg intermittent, n = 33
  Serious treatment-emergent: Musculoskeletal and connective tissue disorders: 2 (6) no. (%)

Where two headings read alike, the source gives them in different places.
